Data from PubChem BioAssay AID1509 (The Scripps Research Institute Molecular Screening Center, 2009).
The list shows a part of the results, in another mix than the full data. Some results for these compounds are left out of this collection, so the calls shown say nothing about other tests. Active and inactive are the calls of the source. Rule as the data show it: active = activation above about 11%; inactive = the rest.

Protein sequences, listed by entry. Tags and fused reporters are not part of them.
UniProt O95977, whole entry: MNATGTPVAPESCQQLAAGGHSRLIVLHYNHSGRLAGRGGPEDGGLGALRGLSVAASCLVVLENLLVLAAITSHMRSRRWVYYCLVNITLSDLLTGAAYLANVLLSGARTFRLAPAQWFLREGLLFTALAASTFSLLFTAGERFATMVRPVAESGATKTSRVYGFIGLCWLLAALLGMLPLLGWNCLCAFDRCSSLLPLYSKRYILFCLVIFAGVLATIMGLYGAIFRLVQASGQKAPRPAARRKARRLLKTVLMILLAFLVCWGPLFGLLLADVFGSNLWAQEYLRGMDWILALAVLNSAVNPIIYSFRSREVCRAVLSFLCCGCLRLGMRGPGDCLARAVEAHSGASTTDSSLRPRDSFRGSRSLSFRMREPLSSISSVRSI

Target: Sphingosine 1-phosphate receptor 4 (Homo sapiens) (UniProt O95977)
Assay: S1P4 receptor agonists, primary screen, cell-based (AID 1509);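 also: 0% = DMSO vehicle and 100% = reference agonist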
Settings: S1P4-expressing cell line, agonist reporter assay; at 4.98 µM; stronger effect = higher value

Compound | activation
COc1cccc(C(=O)NCC2(N3CCCCC3)CCCCC2)c1 | inactive: 0.13%
O=C(OC1CN2CCC1CC2)C(CO)(c1ccccc1)c1ccccc1 (stereo unspecified) | inactive: -2.17%
COc1ccc(Br)c(C(=O)NCC2(N3CCCCC3)CCCCC2)c1 | inactive: -0.07%
CN(C)c1cccc(C(=O)NCC2(N(C)C)CCCCC2)c1 | inactive: 0.13%
O=C(NCC1(N2CCCCC2)CCCCC1)c1cc([N+](=O)[O-])ccc1Cl | inactive: 0.14%
CC(C)N1C(=O)CC2(CCN(CCOC(=O)C(O)(c3ccccc3)c3ccccc3)CC2)C1=O | inactive: 0.6%
CCN(CC)CC(C)C(C)OC(=O)C(O)(c1ccccc1)c1ccccc1 (stereo unspecified) | inactive: 0.28%
CN(C)C1CCCC1OC(=O)C(O)(c1ccccc1)c1ccccc1 (stereo unspecified) | inactive: 1.02%
Cc1ccccc1C(=O)NCC1(N2CCCCC2)CCCCC1 | inactive: -1.21%
C=CCN1CCN(CCOC(=O)C(O)(c2ccccc2)c2ccccc2)CC1 | inactive: 0.34%
CCN1CCCC(OC(=O)C2(O)c3ccccc3C=Cc3ccccc32)C1 (stereo unspecified) | inactive: 0.54%
